{
  "source": "PubChem BioAssay AID1947",
  "about": "(The Scripps Research Institute Molecular Screening Center, 2009)",
  "note": "The entries are a selection whose mix differs from that of the whole data set. Some salts and complexes are drawn in separate pieces, as the source files them; their charges need not balance. Calls of active or inactive are those of the source.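 The calls were made as follows: active = inhibition above the screen mean inhibition plus 3 SD, computed separately per campaign (cut at about 18% in these data); inactive = the rest.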",
  "data": [
    {"tested_on": "Fam108B (ABHD17B) serine hydrolase [Mus musculus]", "experiment": "mouse Fam108B serine hydrolase inhibitors, primary screen, counter-screen for RBBP9 inhibitor project, biochemical, fluorescence polarization (AID 1947);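 also: inhibitors lower polarization as less probe binds the enzyme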", "conditions": "recombinant Fam108B, FP-Rh probe fluorescence polarization; at 9.51 µM; active compounds read high", "values": [
      {"molecule": "CC(C)(C)c1ccc(OP(C)(=O)O)cc1", "inhibition": "inactive: 5.93%"},
      {"molecule": "CP(=O)(Nc1ccc(Cl)cc1)Oc1ccc(F)cc1", "note": "(stereo unspecified)", "inhibition": "inactive: -2.49%"},
      {"molecule": "CN(C)C(=O)c1c([N+](=O)[O-])cc([N+](=O)[O-])cc1[N+](=O)[O-]", "inhibition": "inactive: 2.51%"},
      {"molecule": "COc1ccc(OP(C)(=O)Nc2ccc(Br)cc2)cc1", "note": "(stereo unspecified)", "inhibition": "inactive: 0.82%"},
      {"molecule": "CCN(CC)CC(O)COC(=O)C(O)(c1ccccc1)C1CCCCC1", "note": "(stereo unspecified)", "inhibition": "inactive: -4.3%"},
      {"molecule": "O=C(OCCCN1CCCC1)C(O)(c1ccccc1)C1CCCCC1", "note": "(stereo unspecified)", "inhibition": "inactive: 0.44%"},
      {"molecule": "COc1ccccc1OP(C)(=O)Nc1c(C)n(C)n(-c2ccccc2)c1=O", "note": "(stereo unspecified)", "inhibition": "inactive: 2.5%"},
      {"molecule": "CCc1ccc(OP(C)(=O)Nc2cccnc2)cc1", "note": "(stereo unspecified)", "inhibition": "inactive: 3.22%"},
      {"molecule": "CP(=O)(Oc1ccccc1)N1CCOC1=O", "note": "(stereo unspecified)", "inhibition": "inactive: -8.52%"},
      {"molecule": "Nc1ccc2c(ccc3cccnc32)n1.O=[N+]([O-])c1cc([N+](=O)[O-])c(O)c([N+](=O)[O-])c1", "inhibition": "inactive: -1.76%"},
      {"molecule": "CCOC(=O)c1ccc(NP(C)(=O)Oc2ccc(Cl)cc2)cc1", "note": "(stereo unspecified)", "inhibition": "inactive: -2.26%"},
      {"molecule": "CP(=O)(OC12CC3CC(CC(C3)C1)C2)OC12CC3CC(CC(C3)C1)C2", "inhibition": "inactive: 0.37%"},
      {"molecule": "O=[N+]([O-])c1cc([N+](=O)[O-])c(NCC2CCS(=O)(=O)C2)c([N+](=O)[O-])c1", "note": "(stereo unspecified)", "inhibition": "inactive: 3.79%"},
      {"molecule": "COc1ccc(OP(C)(=O)Nc2cccc(Br)c2)cc1", "note": "(stereo unspecified)", "inhibition": "inactive: 2.46%"},
      {"molecule": "CN(C)CCOC(=O)C(O)(c1ccccc1)C1CCCCC1", "note": "(stereo unspecified)", "inhibition": "inactive: -0.97%"},
      {"molecule": "COc1ccc(NP(C)(=O)Oc2ccccc2OC)cc1", "note": "(stereo unspecified)", "inhibition": "inactive: -3.69%"},
      {"molecule": "CP(=O)(Nc1ccc2c(c1)OCCO2)Oc1ccccc1", "note": "(stereo unspecified)", "inhibition": "inactive: 2.67%"},
      {"molecule": "Cc1ccccc1NP(C)(=O)Nc1ccccc1C", "inhibition": "inactive: -3.18%"},
      {"molecule": "CP(=O)(Nc1ccc(SC(F)(F)F)cc1)Oc1ccc(F)cc1", "note": "(stereo unspecified)", "inhibition": "inactive: -5.5%"},
      {"molecule": "CCOP(C)(=S)SCC(=O)NC(C)(CC)C(=O)O", "note": "(stereo unspecified)", "inhibition": "inactive: 4.97%"},
      {"molecule": "O=C(OC1CN2CCC1CC2)c1ccc([N+](=O)[O-])cc1", "note": "(stereo unspecified)", "inhibition": "inactive: 1.52%"},
      {"molecule": "O=C(OCCN1CCN(CCOCc2ccccc2)CC1)C(O)(c1ccccc1)c1ccccc1", "inhibition": "inactive: -9.11%"},
      {"molecule": "COc1ccc2c(c1O)-c1c(O)c(OC)cc3c1[C@H](C2)[N+](C)(C)CC3.O=[N+]([O-])c1cc([N+](=O)[O-])c([O-])c([N+](=O)[O-])c1[O-]", "inhibition": "inactive: 2.69%"},
      {"molecule": "CP(=O)(Nc1ccccc1F)Oc1ccccc1", "note": "(stereo unspecified)", "inhibition": "inactive: -2.52%"},
      {"molecule": "CC(C)c1ccc(OP(C)(=O)Nc2ccc(SC(F)(F)F)cc2)cc1", "note": "(stereo unspecified)", "inhibition": "inactive: 0.75%"},
      {"molecule": "CCN(CC)CCCOC(=O)C(O)(c1ccccc1)C1CCCCC1", "note": "(stereo unspecified)", "inhibition": "inactive: 7.53%"},
      {"molecule": "CP(=O)(Nc1ccccc1)Oc1ccc(F)cc1", "note": "(stereo unspecified)", "inhibition": "inactive: 3.78%"},
      {"molecule": "CCCCCOc1ccc(NP(C)(=O)Oc2ccc(Cl)cc2Cl)cc1", "note": "(stereo unspecified)", "inhibition": "inactive: -3.12%"},
      {"molecule": "O=[N+]([O-])c1cc([N+](=O)[O-])c(OC2CCCCC2O)c([N+](=O)[O-])c1", "note": "(stereo unspecified)", "inhibition": "inactive: -1.01%"},
      {"molecule": "CCOC(=O)c1ccc(NP(C)(=O)Oc2ccc(F)cc2)cc1", "note": "(stereo unspecified)", "inhibition": "inactive: 2.88%"},
      {"molecule": "COc1ccc(OP(C)(=O)Nc2ccc(SC(F)(F)F)cc2)cc1", "note": "(stereo unspecified)", "inhibition": "inactive: 2.34%"}
    ]}
  ]
}
